Amino acid sequences for entries named in this document (tags omitted).
UniProt P06211, whole entry: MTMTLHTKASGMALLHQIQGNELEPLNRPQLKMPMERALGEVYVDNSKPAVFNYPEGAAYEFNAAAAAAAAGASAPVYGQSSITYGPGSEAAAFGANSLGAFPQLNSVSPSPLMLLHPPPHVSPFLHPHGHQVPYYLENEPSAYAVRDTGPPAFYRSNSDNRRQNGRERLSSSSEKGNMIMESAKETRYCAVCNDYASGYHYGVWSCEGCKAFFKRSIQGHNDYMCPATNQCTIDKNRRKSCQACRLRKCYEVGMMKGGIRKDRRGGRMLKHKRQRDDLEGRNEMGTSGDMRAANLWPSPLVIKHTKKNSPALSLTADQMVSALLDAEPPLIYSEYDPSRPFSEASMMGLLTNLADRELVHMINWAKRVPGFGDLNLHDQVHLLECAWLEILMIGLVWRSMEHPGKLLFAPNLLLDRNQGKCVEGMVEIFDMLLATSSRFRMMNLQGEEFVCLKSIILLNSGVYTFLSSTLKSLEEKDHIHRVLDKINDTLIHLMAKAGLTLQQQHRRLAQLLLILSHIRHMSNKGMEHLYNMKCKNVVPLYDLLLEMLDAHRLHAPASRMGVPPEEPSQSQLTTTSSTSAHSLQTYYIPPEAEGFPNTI

According to patent US7947275B2 (Signe Biopharma, Inc., priority 2000, dated 2011):

Molecular target: estrogen receptors of MTW9/PL2 cells (Rattus norvegicus, UniProt P06211)
Experiment: ^3H-E2 binding to MTW9/PL2 cells
Conditions: 5 nM ^3H-E2, 37° C., 1000-fold excess of unlabeled steroid

## C[C@]12CC[C@H]3[C@@H](CCC4=CC(=O)CC[C@@]43C)[C@@H]1CC[C@@H]2O [T, Testosterone]
  reduction of ^3H-E2 total binding by unlabeled steroid: 15%
